A short description of the data set: Determination of protraction in pigs: disappearance of labelled peptide from the subcutaneous injection site. The following applies: 125I-labelled peptide, external γ-counter.

With “Arg^4,Arg^9,Lys^15 (N^ε-tetradecanoyl) somatostatin [Example 4]”, the “T50% (time when 50% of the labelled peptide has disappeared from the site of injection)” value was 1.7 ± 0.5 h.
